# Antibody variant affinities, Ab-91 heavy chain, assay 2

The measurements come from Engelhart et al. 2022 (doi:10.1038/s41597-022-01779-4) through the FLAb antibody collection.

Binding partner: SARS-CoV-2 spike HR2 peptide, sequence PDVDLGDISGINAS.

Each scFv is VL, three GGGGS repeats, VH, as in the parent Ab-91, and differs from it in the CDRs of the heavy chain only.
VL: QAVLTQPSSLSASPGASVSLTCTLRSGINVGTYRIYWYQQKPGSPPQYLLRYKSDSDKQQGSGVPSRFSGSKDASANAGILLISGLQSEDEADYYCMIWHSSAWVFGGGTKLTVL
VH: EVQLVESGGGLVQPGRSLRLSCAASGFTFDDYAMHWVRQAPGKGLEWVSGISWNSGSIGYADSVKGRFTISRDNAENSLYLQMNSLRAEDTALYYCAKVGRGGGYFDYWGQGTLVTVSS

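The parent was found by panning a naive human phage display library on the peptide. In library AAYL51, one, two or three CDR residues were substituted; doubles and triples were drawn at random. Affinity was read by AlphaSeq, a pooled yeast mating assay with surface-displayed partners. The frequency of each diploid, read from paired DNA barcodes, reflects how well the two displayed proteins bind. Scores were corrected for input abundance and mapped to Kd with protein pairs of known affinity run in the same pool. Each pool was mated in three replicate cultures.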

Variants are written as CDR1, CDR2 and CDR3 of the heavy chain (limits as in the source). Parent: GFTFDDYAMH, GISWNSGSIGYADSVK, VGRGGGYFDY. Each Kd is an estimate from the mating assay, the geometric mean of the replicates in which the pair was seen; lower is stronger. A pair that was not seen in any replicate is written "not detected"; this usually means weak binding, but a binder can also be missed.

| # | Kd (apparent) | detected | CDR-H1 | CDR-H2 | CDR-H3 |
|---|---|---|---|---|---|
| 1 | 410 µM | 1/3 | GFTFDDYGMG | GISWNSGSIGYADSVK | VARGGGYFDY |
| 2 | not detected | 0/3 | GFTFDDYAMH | GISWNSGSIGKADSVT | VGRGGGTFDY |
| 3 | not detected | 0/3 | GFTGDDYAMT | GISWNSGSIGYADSVK | VGRGGGYFDI |
| 4 | not detected | 0/3 | GFTFDDYAMH | GISWSSGSIGYADKVK | VRRGGGYFDY |
| 5 | not detected | 0/3 | IFTFDDYAMH | GISWNSGSIGYADSRK | VGRGGGCFDY |
| 6 | not detected | 0/3 | GFTFFDYAMH | GISWNSGSIGYADSVK | VGRGGRYFDY |
| 7 | 21 µM | 1/3 | GFTFDDGAMH | GISWNMGSIGYADSVY | VGRGGGYFDY |
| 8 | not detected | 0/3 | GFTFDGYAMH | GMSWNSGSIGPADSVK | VGRGGGYFDY |
| 9 | not detected | 0/3 | GFTFDDYAMH | GIQWNVGSIGYADTVK | VGRGGGYFDY |
| 10 | not detected | 0/3 | GFTFDDYAMH | GISWNSGWIGYADSVK | DGRGGGYFDI |
| 11 | not detected | 0/3 | GFTFDDYAMH | GISWNSGSAGQADSVN | VGRGGGYFDY |
| 12 | 9.3 µM | 1/3 | GFTFDDGAMH | GISWNSGSIGYADSVW | VNRGGGYFDY |
| 13 | 13 µM | 1/3 | GFTFDDYAMH | KISWNSGSIGYADSVK | VGHGGGTFDY |
| 14 | 7.6 µM | 1/3 | GFTFDDYAMH | GISDNSGSIGYADSVK | PGRGGGYFDY |
| 15 | not detected | 0/3 | GFTFDDYAMH | YISWNSGHIGYADSVK | VGRGGGYFDN |
| 16 | not detected | 0/3 | GFTPDDYAMH | GISWNSGSIGYADSRK | VGRGGRYFDY |
| 17 | 12 µM | 2/3 | GFTPDDYAMH | GISWNSGSIGYCDSVK | VGRGGHYFDY |
| 18 | 8.9 µM | 1/3 | GFTLDDYAMH | GISWWSGSIGYADSVK | VGRGGGYFDD |
| 19 | 22 µM | 1/3 | GFTFDDYAMH | GISWNLGSIGYADSVK | VGYVGGYFDY |
| 20 | not detected | 0/3 | GFTFHDYQMW | GISWNSGSIGYADSVK | VGRGGGYFDY |
| 21 | 74 nM | 3/3 | GFTFDDYAMH | GISWNSGSYGYADSVM | VGRGGGNFDY |
| 22 | not detected | 0/3 | GFTFDDYAMH | GISWNSGSIGYGDSVK | VGRFGGYFDG |
| 23 | 14 nM | 3/3 | GFTFDDYAMH | GISWNSGSRGYADYVK | VGLGGGYFDY |
| 24 | 78 µM | 2/3 | GFTFDDYDMH | GISWNSGSIGYADSVK | SGAGGGYFDY |
| 25 | not detected | 0/3 | GFWFDDYAMH | MISWNSGSIGYADNVK | VGRGGGYFDY |
| 26 | not detected | 0/3 | GFTFDDRSMH | GISWNSGSIGCADSVK | VGRGGGYFDY |
| 27 | 5.2 µM | 1/3 | GFTFDDKAME | GISWNSGSIGYADSVK | VGRNGGYFDY |
| 28 | not detected | 0/3 | GFTMDDYAMP | GISWNSGSIGYADSVK | VGRGGGPFDY |
| 29 | 90 µM | 3/3 | GFKFDDYAMH | GILWNSGSIGYADSVK | LGRGGGYFDY |
| 30 | 260 nM | 1/3 | GCTFDDYKMH | GISWNSGSIGYADSVK | VRRGGGYFDY |
| 31 | 91 µM | 1/3 | GFTFDDYAMH | GISWNSGSIGYTDSVK | VGRGDGDFDY |
| 32 | not detected | 0/3 | GFTFDDYAMH | GISDNSGSIGYADSVK | VGRGGEYFDY |
| 33 | 46 µM | 3/3 | GDGFDDYAMH | GISWNSGSIGYADSVK | VGRGGGHFDY |
| 34 | not detected | 0/3 | GFTHDDYAMH | GIVWNSGSIGYARSVK | VGRGGGYFDY |
| 35 | not detected | 0/3 | GCTDDDYAMH | GISWNSGSIGYADSVK | PGRGGGYFDY |
| 36 | 200 µM | 3/3 | GFTFDHYAMH | GISWNSGSIGYADSVK | VGRMGSYFDY |
| 37 | not detected | 0/3 | GFTFDWYAWH | GISWNSGSIFYADSVK | VGRGGGYFDY |
| 38 | not detected | 0/3 | GFTFDCYAMH | GICWNSPSIGYADSVK | VGRGGGYFDY |
| 39 | not detected | 0/3 | GFTFDDYPMH | GISWISGSIGYADSVK | LGRGGGYFDY |
| 40 | not detected | 0/3 | GFTFDDYAMH | GISWNSGSRGYADSVK | VERKGGYFDY |
| 41 | not detected | 0/3 | GFTFDDYAMH | GISWNSGSIGYRLSVK | VGRKGGYFDY |
| 42 | 41 µM | 1/3 | GSTFDDYAMH | GISWNSGMIGYADSSK | VGRGGGYFDY |
| 43 | 160 nM | 1/3 | GFTYDDYAMH | GISWNSGSIGYADSVK | VGYGGGYFDY |
| 44 | 260 µM | 1/3 | GFTFDDYAMH | GRSWNSGDIGYADSVK | VGRGWGYFDY |
| 45 | 46 nM | 3/3 | GFTFRDYAMH | GISWNSGMIGYMDSVK | VGRGGGYFDY |
| 46 | not detected | 0/3 | GFTFDDYAMH | GISGNSGSIVTADSVK | VGRGGGYFDY |
| 47 | 46 µM | 1/3 | GHTFDDIAMH | GISWNSGSIGYADSVK | VMRGGGYFDY |
| 48 | 190 nM | 3/3 | GFTFDDYAMH | GISPNSGSIGYAWSVK | VGRGGGYYDY |

The 6 strongest on average among those seen in every replicate, once more:

| CDR-H1 | CDR-H2 | CDR-H3 | Kd (apparent) | detected |
|---|---|---|---|---|
| GFTFDDYAMH | GISWNSGSRGYADYVK | VGLGGGYFDY | 14 nM | 3/3 |
| GFTFRDYAMH | GISWNSGMIGYMDSVK | VGRGGGYFDY | 46 nM | 3/3 |
| GFTFDDYAMH | GISWNSGSYGYADSVM | VGRGGGNFDY | 74 nM | 3/3 |
| GFTFDDYAMH | GISPNSGSIGYAWSVK | VGRGGGYYDY | 190 nM | 3/3 |
| GDGFDDYAMH | GISWNSGSIGYADSVK | VGRGGGHFDY | 46 µM | 3/3 |
| GFKFDDYAMH | GILWNSGSIGYADSVK | LGRGGGYFDY | 90 µM | 3/3 |

Background: pairings of library AAYL51 with three empty control strains gave a value in 21% of cases (median 34 µM, 5th percentile 1.8 µM). Values in that range, when seen in few replicates, are hard to tell from nonspecific mating.